Source: patent publication US20190125772A1, “IMPROVED DRUG COMBINATIONS FOR DRUG-RESISTANT AND DRUG-SENSITIVE MULTIPLE MYELOMA” (priority 2015, published 2019)

Tested on: Bortezomib-resistant RPMI 8226 multiple myeloma cells
Assay: Inhibitory concentrations (ICx, inhibition of cell growth) of the drugs in FSC-derived optimal combinations, Bortezomib-resistant multiple myeloma
Type: cell-based
Conditions: concentration of the single drug as used in optimal combinations

Nc1ncn([C@H]2C[C@H](O)[C@@H](CO)O2)c(=O)n1 [Decitabine, 5-aza-2′-deoxycytidine]
IC22.5: ~1.28 µM
